Experimental data reported in patent US12065507B2 (priority 2020, dated 2024).
Read-outs that look alike come from different tables or passages of the source.

Assays:
[1] = read-out: Kd, heroin; from IC50 against 2 nM [H^3]-morphine, 20 or 60 nM antibody
[2] = read-out: Kd, 6-MAM; from IC50 against 2 nM [H^3]-morphine, 20 or 60 nM antibody
[3] = read-out: Kd, hydrocodone; from IC50 against 2 nM [H^3]-morphine, 20 or 60 nM antibody

B1: UK6Mab02: fully humanized antibody (H1L3) designed from Ab13, with human IgG1 heavy and kappa light constant regions (antibody, V domains shown)
VH: EVQLVQSGAEVKKPGASVKISCKASGYTFTSYWIEWVKQAPGKGLEWIGEINPSGGSTIYAEKFQGRATFTADTSTSTAYMELSSLRSEDTAVYYCARWVLDYYGMDYWGQGTSLTVSS
VL: QAVVTQEPSLTVSPGGTVTLTCGSSTGAVTSGNYANWVQQKPGQAFRGLIGGTNTRSSGVPDRFSGSLLGGKAALTISGAQPEDEAEYYCALWYSNKLVFGGGTKLTVL
modifications: H1 (UK6Mab02) Heavy Chain; L3 (UK6Mab02) - Light chain
[1]
  Kd: 11.8 nM
[2]
  Kd: 11.9 nM
[3]
  Kd: 39.3 nM
